{
  "source": "ChEMBL document CHEMBL1135749",
  "about": "“Stereoselective synthesis and antiviral activity of D-2',3'-didehydro-2',3'-dideoxy-2'-fluoro-4'-thionucleosides” (J Med Chem, 2002)",
  "proteins": {"B1": {"name": "Adenosine deaminase (Bos taurus), P56658 (protein)", "chain": "MAQTPAFNKPKVELHVHLDGAIKPETILYYGRKRGIALPADTPEELQNIIGMDKPLSLPEFLAKFDYYMPAIAGCREAVKRIAYEFVEMKAKDGVVYVEVRYSPHLLANSKVEPIPWNQAEGDLTPDEVVSLVNQGLQEGERDFGVKVRSILCCMRHQPSWSSEVVELCKKYREQTVVAIDLAGDETIEGSSLFPGHVKAYAEAVKSGVHRTVHAGEVGSANVVKEAVDTLKTERLGHGYHTLEDATLYNRLRQENMHFEVCPWSSYLTGAWKPDTEHPVVRFKNDQVNYSLNTDDPLIFKSTLDTDYQMTKNEMGFTEEEFKRLNINAAKSSFLPEDEKKELLDLLYKAYGMPSPASAEQCL"}},
  "substrate": "Nc1ncnc2c1ncn2[C@@H]1O[C@H](CO)C=C1F",
  "data": [
    {"protein": "B1", "values": [
      {"measurement": "Km", "value": 23, "unit": "µM"}
    ]}
  ]
}
